Reference: article PMC12802263 (mBio, 2025)

Amino acid sequences for entries named in this document (tags omitted). A change or cut given only in a name is not applied to a line headed by its entry.
UniProt Q6XGD8: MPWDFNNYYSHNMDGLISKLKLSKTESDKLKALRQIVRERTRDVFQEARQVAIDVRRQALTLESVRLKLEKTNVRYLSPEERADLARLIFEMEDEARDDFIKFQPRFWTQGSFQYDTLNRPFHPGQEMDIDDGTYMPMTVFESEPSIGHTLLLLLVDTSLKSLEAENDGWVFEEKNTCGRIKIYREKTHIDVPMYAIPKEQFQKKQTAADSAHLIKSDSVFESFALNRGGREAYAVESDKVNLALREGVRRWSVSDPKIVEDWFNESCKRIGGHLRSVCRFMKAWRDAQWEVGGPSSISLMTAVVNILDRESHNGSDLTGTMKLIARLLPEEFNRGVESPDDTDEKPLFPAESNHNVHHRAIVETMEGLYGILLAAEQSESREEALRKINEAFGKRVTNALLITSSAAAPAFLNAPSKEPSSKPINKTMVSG

How the values were obtained:
DncE [1] = target: T1, DncE (Escherichia coli, UniProt Q6XGD8); experiment: HPLC of […]'[…]'-cGAMP and c-di-GMP; settings: with ATP or as sole substrate (100 µM); 1 mM Mn2+; 50 mM Tris-HCl, pH 7.5, 37 °C
T1 construct: gene dncV

DncE [2] = target: T1, DncE; settings: with GTP or as sole substrate (100 µM); 1 mM Mn2+; 50 mM Tris-HCl, pH 7.5, 37 °C

Row | SMILES | HPLC of 3'3'-cGAMP and c-di-GMP (DncE [1]) | HPLC of 3'3'-cGAMP and c-di-AMP (DncE [2])
1 | Nc1nc2c(ncn2[C@@H]2O[C@H](COP(=O)(O)OP(=O)(O)OP(=O)(O)O)[C@@H](O)[C@H]2O)c(=O)[nH]1 [GTP] | DncV or DncE generated significantly higher levels of both c-di-AMP and c-di-GMP | –
2 | Nc1ncnc2c1ncn2[C@@H]1O[C@H](COP(=O)(O)OP(=O)(O)OP(=O)(O)O)[C@@H](O)[C@H]1O [ATP] | – | DncV or DncE generated significantly higher levels of both c-di-AMP and c-di-GMP
